Chains of the proteins cited; added tags and fusions are not shown. Residues count along the entry.
UniProt P30530, 473-894 limits assumed: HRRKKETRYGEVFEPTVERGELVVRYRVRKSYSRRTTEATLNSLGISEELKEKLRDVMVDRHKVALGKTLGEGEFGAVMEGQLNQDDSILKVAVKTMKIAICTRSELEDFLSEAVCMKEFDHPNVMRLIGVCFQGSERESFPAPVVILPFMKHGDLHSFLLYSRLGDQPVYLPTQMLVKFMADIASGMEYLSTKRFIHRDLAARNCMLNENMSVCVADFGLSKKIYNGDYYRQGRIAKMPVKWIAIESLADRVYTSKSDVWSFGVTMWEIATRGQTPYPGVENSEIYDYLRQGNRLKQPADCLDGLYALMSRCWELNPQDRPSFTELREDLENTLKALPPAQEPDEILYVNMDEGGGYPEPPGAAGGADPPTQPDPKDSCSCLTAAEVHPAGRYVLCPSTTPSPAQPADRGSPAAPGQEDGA

According to patent publication US20230227484A1, “PYRIMIDINE COMPOUND AS AXL INHIBITOR” (NANJING CHIA TAI TIANQING PHARMACEUTICAL CO., LTD., priority 2020, published 2023):

Molecular target: AXL kinase (Homo sapiens, UniProt P30530)
Test: Inhibitory activity of compound against AXL kinase (HTRF KinEASE)
Type: biochemical
Conditions: read-out: Inhibitory activity IC50 (nM) against AXL; AXL enzyme (Carna, 08-107), ATP 15 μM; "<" means below detection limit of the test

Compound | IC50
CP(C)(=O)c1cc(F)ccc1Nc1nc(Nc2ccc3c(c2)CCC(N2CCC4CC42)CC3)ncc1Cl (single isomer, unassigned) [Example 58 Isomer 58-3] | 60.4 nM
CP(C)(=O)c1cc(OC(F)(F)F)ccc1Nc1nc(Nc2ccc3c(c2)CCC(N2CC4CC2C4)CC3)ncc1Cl (single isomer, unassigned) [Example 102 Isomer 102-2] | 35.5 nM
CO[C@H]1CCN([C@@H]2CCc3ccc(Nc4ncc(Cl)c(Nc5ccc(C)cc5P(C)(C)=O)n4)cc3CC2)C1 (single isomer, unassigned) | 66.4 nM
CP(C)(=O)c1cc(OC(F)(F)F)ccc1Nc1nc(Nc2ccc3c(c2)CCC(N2C4CCC2COC4)CC3)ncc1Cl (single isomer, unassigned) [Example 101 Isomer 101-1] | 1.2 nM
CP(C)(=O)c1cc(OC(F)(F)F)ccc1Nc1nc(Nc2ccc3c(c2)CCC(N2C[C@H]4C[C@@H]2CO4)CC3)ncc1Cl (single isomer, unassigned) [Example 103 Isomer 103-2] | 47.5 nM
CP(C)(=O)c1cc(Cl)ccc1Nc1nc(Nc2ccc3c(c2)CCC(N2C[C@H]4C[C@@H]2CO4)CC3)ncc1Cl (single isomer, unassigned) [Example 105 Isomer 105-2] | 24.9 nM
CP(C)(=O)c1cc(OC(F)F)ccc1Nc1nc(Nc2ccc3c(c2)CCC(N2C4COCC2C4)CC3)ncc1Cl (single isomer, unassigned) [Example 84 Isomer 84-2] | 28.8 nM
Cc1ccc(Nc2nc(Nc3ccc4c(c3)CCC(N3CCC5(CC5)C3)CC4)ncc2Cl)c(P(C)(C)=O)c1 (single isomer, unassigned) [Example 69 Isomer 69-2] | 44.7 nM
CP(C)(=O)c1cc(OC(F)(F)F)ccc1Nc1nc(Nc2ccc3c(c2)CCC(N2C4COCC2C4)CC3)ncc1Cl (single isomer, unassigned) [Example 100 Isomer 100-1] | 1 nM
CP(C)(=O)c1cc(OC(F)(F)F)ccc1Nc1nc(Nc2ccc3c(c2)CCC(N2C[C@@H]4C[C@H]2CO4)CC3)ncc1Cl (single isomer, unassigned) [Example 104 Isomer 104-2] | 63 nM
CP(C)(=O)c1cc(F)ccc1Nc1nc(Nc2ccc3c(c2)CCC(N2CC4CC2C4)CC3)ncc1Cl (single isomer, unassigned) [Example 60 Isomer 60-2] | 107 nM
CP(C)(=O)c1cc(F)ccc1Nc1nc(Nc2ccc3c(c2)CCC(N2CCC4CC42)CC3)ncc1Cl (single isomer, unassigned) [Example 58 Isomer 58-4] | 78.5 nM
CP(C)(=O)c1cc(C#N)ccc1Nc1nc(Nc2ccc3c(c2)CCC(N2CC4CC2C4)CC3)ncc1Cl (single isomer, unassigned) [Example 86 Isomer 86-1] | 30.3 nM
CO[C@H]1CCN([C@H]2CCc3ccc(Nc4ncc(Cl)c(Nc5ccc(C)cc5P(C)(C)=O)n4)cc3CC2)C1 (single isomer, unassigned) | 3.43 nM
CP(C)(=O)c1cc(Cl)ccc1Nc1nc(Nc2ccc3c(c2)CC[C@H](N2C[C@@H]4C[C@H]2CO4)CC3)ncc1Cl (single isomer, unassigned) | 21.8 nM
CO[C@@H]1CCN([C@H]2CCc3ccc(Nc4ncc(Cl)c(Nc5ccc(C)cc5P(C)(C)=O)n4)cc3CC2)C1 (single isomer, unassigned) | 4.87 nM
CP(C)(=O)c1cc(OC(F)(F)F)ccc1Nc1nc(Nc2ccc3c(c2)CCC(N2C4CCC2COC4)CC3)ncc1Cl (single isomer, unassigned) [Example 101 Isomer 101-2] | 55.2 nM
Cc1ccc(Nc2nc(Nc3ccc4c(c3)CC[C@H](N3CC[C@@H](F)C3)CC4)ncc2Cl)c(P(C)(C)=O)c1 (single isomer, unassigned) | 50.1 nM
Cc1ccc(Nc2nc(Nc3ccc4c(c3)CC[C@H](N3CC[C@H](O)C3)CC4)ncc2Cl)c(P(C)(C)=O)c1 (single isomer, unassigned) | 80.5 nM
Cc1ccc(Nc2nc(Nc3ccc4c(c3)CC[C@@H](N3CC[C@@H](O)C3)CC4)ncc2Cl)c(P(C)(C)=O)c1 (single isomer, unassigned) | 8.05 nM
